Assays:
Format in all cases: biochemical
FBXL10 = biological target: T1, FBXL10 (Homo sapiens, UniProt Q8NHM5); test: FBXL10 in vitro enzyme inhibition assay (AlphaScreen)
T1 construct: purchased BPS Bioscience 50120
T1 sequence (Q8NHM5 1-650): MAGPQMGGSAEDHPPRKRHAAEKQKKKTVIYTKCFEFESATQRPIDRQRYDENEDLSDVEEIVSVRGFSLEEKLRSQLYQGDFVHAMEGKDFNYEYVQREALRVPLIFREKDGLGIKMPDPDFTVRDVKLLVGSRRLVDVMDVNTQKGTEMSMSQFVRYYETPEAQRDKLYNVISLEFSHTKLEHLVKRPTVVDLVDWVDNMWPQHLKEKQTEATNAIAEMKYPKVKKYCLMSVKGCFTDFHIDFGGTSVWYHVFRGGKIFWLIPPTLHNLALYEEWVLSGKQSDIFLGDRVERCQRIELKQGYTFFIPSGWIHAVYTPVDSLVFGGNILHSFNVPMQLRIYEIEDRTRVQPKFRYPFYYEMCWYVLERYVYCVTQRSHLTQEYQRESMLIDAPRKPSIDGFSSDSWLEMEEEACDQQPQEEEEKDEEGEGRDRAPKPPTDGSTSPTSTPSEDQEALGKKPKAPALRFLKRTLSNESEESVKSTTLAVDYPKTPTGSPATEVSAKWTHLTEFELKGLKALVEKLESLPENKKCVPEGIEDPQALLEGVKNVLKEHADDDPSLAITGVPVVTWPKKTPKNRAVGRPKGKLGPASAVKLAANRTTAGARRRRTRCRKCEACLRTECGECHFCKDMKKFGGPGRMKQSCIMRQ
Source text: (§1) This assay determines the ability of a test compound to inhibit FBXL11, FBXL10, and PHF8 demethylase activity. Baculovirus expressed FBXL11 (GenBank Accession #NM_012308, AA1-1162) was purchased from BPS Bioscience (Cat#50102). Baculovirus expressed FBXL10 (GenBank Accession #NM_032590, AA 1-650) was purchased from BPS Bioscience (Cat #50120). Baculovirus expressed PHF8 (GenBank Accession NP_055922.1) was purchased from Active Motif (Cat#31435).
The ability of test compounds to inhibit the activity of FBXL10 was determined in 384-well plate format under the following reaction conditions: 0.3 nM FBXL10, 30 nM H3K36me2-biotin labeled peptide (Anaspec cat # 64442), 0.2 µM alpha-ketoglutaric acid in assay buffer of 50 mM HEPES, pH7.3, 0.005% Brij35, 0.5 mM TCEP, 0.2 mg/ml BSA, 50 µM sodium L-ascorbate, 5 µM ammonium iron(II) sulfate. Reaction product is determined quantitatively by AlphaScreen detection after the addition of detection reagents anti-H3K36me1 antibody, AlphaScreen® Streptavidin-coated Donor beads, and AlphaScreen® Protein A Acceptor beads in 50 mM HEPES, pH7.3, 10 mM NaCl, 0.005% Brij35, 5 mM EDTA, 2 mg/ml BSA to final 10 µg/ml beads.
The assay reaction was initiated by the following: 3 µl of the mixture of 90 nM H3K36me2-biotin labeled peptide and 0.6 µM alpha-ketoglutaric acid with 3 µl of 11-point serial diluted inhibitor in 3% DMSO are added to each well of 384 well Proxiplate (Perkin Elmer), followed by the addition of 3 µl of 0.9 nM FBXL10 to initiate the reaction. The reaction mixture is incubated at room temperature for 1 hour, and terminated by the addition of 3 µl of appropriate dilution of anti H3K36me1 antibody in 50 mM HEPES, pH7.3, 10 mM NaCl, 0.005% Brij35, 5 mM EDTA, 2 mg/ml BSA. Plates will then incubated at room temperature for 40 minutes, followed by addition of 3 µl of 50 µg/ml AlphaScreen® Streptavidin-coated Donor beads and AlphaScreen® Protein A Acceptor beads in 50 mM HEPES, pH7.3, 10 mM NaCl, 0.005% Brij35, 5 mM EDTA, 2 mg/ml BSA. Plates will then be read by EnVision Multilabel Reader in AlphaScreen mode after minimum 2 hour incubation at room temperature. The AlphaScreen signal for each well is used to determine inhibition constant (IC50).

Amino acid sequences for entries named in this document (tags omitted). Residues count along the entry.
UniProt Q9UPP1, 37-1060: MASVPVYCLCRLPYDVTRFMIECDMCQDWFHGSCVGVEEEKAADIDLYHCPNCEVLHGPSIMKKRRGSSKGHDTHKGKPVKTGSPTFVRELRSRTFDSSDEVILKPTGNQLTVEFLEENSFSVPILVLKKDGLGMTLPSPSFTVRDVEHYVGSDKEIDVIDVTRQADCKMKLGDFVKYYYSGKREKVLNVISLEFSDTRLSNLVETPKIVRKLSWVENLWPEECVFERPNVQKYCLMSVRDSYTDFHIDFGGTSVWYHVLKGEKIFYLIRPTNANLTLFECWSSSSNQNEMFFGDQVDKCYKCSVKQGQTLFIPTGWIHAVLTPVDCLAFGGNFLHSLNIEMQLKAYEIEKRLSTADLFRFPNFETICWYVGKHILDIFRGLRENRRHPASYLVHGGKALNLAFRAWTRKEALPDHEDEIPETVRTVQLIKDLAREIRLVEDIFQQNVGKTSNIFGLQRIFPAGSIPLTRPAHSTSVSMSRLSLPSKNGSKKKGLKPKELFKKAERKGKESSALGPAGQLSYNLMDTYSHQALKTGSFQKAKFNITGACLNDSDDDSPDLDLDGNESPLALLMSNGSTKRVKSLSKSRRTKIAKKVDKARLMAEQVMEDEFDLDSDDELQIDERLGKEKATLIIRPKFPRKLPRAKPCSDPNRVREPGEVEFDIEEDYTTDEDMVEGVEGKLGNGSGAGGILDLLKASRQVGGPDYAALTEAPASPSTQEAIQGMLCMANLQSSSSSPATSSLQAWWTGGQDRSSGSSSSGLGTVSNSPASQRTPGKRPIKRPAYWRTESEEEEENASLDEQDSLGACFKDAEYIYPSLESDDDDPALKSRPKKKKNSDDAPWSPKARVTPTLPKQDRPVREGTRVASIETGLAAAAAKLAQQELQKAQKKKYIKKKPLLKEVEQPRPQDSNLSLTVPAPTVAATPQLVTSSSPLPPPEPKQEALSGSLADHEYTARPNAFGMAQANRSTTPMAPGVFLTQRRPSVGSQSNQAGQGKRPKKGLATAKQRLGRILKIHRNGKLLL

PHF8 = biological target: T2, PHF8 (Homo sapiens, UniProt Q9UPP1); test: PHF8 in vitro enzyme inhibition assay (TR-FRET); conditions: Table 3; 3 nM PHF8, H3K9me1-biotin labeled peptide
T2 construct: purchased Active Motif 31435
Source text: as §1
The ability of test compounds to inhibit the activity of PHF8 was determined in 384-well plate format under the following reaction conditions: 3 nM PHF8, 200 nM H3K9me1-biotin labeled peptide (Anaspec cat #64358), 0.5 µM alpha-ketoglutaric acid in assay buffer of 50 mM HEPES, pH7.3, 0.005% Brij35, 0.5 mM TCEP, 0.2 mg/ml BSA, 50 µM sodium L-ascorbate, and 5 µM ammonium iron(II) sulfate. Reaction product was determined quantitatively by TR-FRET after the addition of detection reagent Phycolink Streptavidin-allophycocyanin (Prozyme) and Europium-anti-unmodified-histone H3 lysine 9/lysine27 (H3K9/K27) antibody (PerkinElmer) in the presence of 5 mM EDTA in LANCE detection buffer (PerkinElmer) at a final concentration of 25 nM and 0.5 nM, respectively. […]

Jarid1B = biological target: T3, Jarid1B (Homo sapiens, UniProt Q9UGL1); test: Jarid1B in vitro enzyme inhibition assay (TR-FRET); conditions: Table 5; 0.8 nM Jarid1B, H3K4me3-biotin labeled peptide; read-out: JARID1B IC5
T3 construct: purchased BPS Bioscience (or custom made by MolecularThroughput) 50121
T3 sequence (Q9UGL1 2-751): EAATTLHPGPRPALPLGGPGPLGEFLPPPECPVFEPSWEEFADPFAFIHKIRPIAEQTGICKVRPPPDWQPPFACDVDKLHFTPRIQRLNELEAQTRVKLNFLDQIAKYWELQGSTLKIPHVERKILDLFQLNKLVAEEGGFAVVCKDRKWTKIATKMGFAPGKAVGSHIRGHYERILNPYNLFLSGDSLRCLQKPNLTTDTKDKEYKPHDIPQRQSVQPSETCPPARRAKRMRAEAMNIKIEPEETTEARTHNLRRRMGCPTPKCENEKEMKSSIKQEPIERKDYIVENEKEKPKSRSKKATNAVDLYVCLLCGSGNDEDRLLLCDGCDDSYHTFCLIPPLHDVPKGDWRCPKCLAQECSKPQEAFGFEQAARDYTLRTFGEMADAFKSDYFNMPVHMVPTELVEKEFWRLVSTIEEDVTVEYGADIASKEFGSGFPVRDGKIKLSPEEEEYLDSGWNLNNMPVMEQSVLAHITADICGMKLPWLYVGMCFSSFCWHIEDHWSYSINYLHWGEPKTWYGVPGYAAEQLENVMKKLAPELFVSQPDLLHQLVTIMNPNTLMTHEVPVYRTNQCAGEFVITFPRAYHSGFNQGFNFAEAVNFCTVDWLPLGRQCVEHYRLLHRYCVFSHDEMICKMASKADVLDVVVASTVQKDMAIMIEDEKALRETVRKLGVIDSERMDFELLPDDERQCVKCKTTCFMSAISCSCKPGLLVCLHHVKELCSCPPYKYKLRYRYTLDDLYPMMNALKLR
Source text: This assay determines the ability of a test compound to inhibit Jarid1B, JMJD2C and JMJD3 demethylase activity. Baculovirus expressed Jarid1B (GenBank Accession #NM-006618, AA 2-751) was purchased from BPS Bioscience (Cat #50121) or custom made by MolecularThroughput. Baculovirus expressed JMJD2C (GenBank Accession #BC143571, AA 2-372) was purchased from BPS Bioscience (Cat#50105). Baculovirus expressed JMJD3 (GenBank Accession #NM-001080424, AA1043-end) was purchased from BPS Bioscience (Cat#50115).
The ability of test compounds to inhibit the activity of Jarid1B was determined in 384-well plate format under the following reaction conditions: 0.8 nM Jarid1B, 300 nM H3K4me3-biotin labeled peptide (Anaspec cat #64357), 2 µM alpha-ketoglutaric acid in assay buffer of 50 mM HEPES, pH7.3, 0.005% Brij35, 0.5 mM TCEP, 0.2 mg/ml BSA, 50 µM sodium L-ascorbate, and 2 µM ammonium iron(II) sulfate. Reaction product was determined quantitatively by TR-FRET after the addition of detection reagent Phycolink Streptavidin-allophycocyanin (Prozyme) and Europium-anti-mono-or di-methylated histone H3 lysine 4 (H3K4me1-2) antibody (PerkinElmer) in the presence of 5 mM EDTA in LANCE detection buffer (PerkinElmer) at a final concentration of 25 nM and 1 nM, respectively. […]

[1] = Table 3, 0.3 nM FBXL10, H3K36me2-biotin labeled peptide

Structure (SMILES) | IC50 (FBXL10; [1]) | IC50 (PHF8) | IC50 (FBXL10; Table 5) | IC50 (Jarid1B)
Cn1cnc(-c2cc(-c3c[nH]nn3)ccn2)c1 [Example 1, 2-(1-methylimidazol-4-yl)-4-(1H-triazol-4-yl)pyridine] | 0.1 to 1 µM |  |  | 
Cn1cnc(-c2cc3[nH]nnc3cn2)c1-c1ccc(F)cc1OCC1CC1 [Example 54, 5-[2-(cyclopropylmethoxy)-4-fluorophenyl]-1-methyl-4-{1H-[1,2,3]triazolo[4,5-c]pyridin-6-yl}-1H-imidazole] | 0.1 to 1 µM | 1 to 10 µM |  | 
CCc1ccc(CCn2cnc(-c3cc(-c4nn[nH]c4C(F)(F)F)ccn3)c2)cc1 [Example 95, 2-{1-[2-(4-ethylphenyl)ethyl]-1H-imidazol-4-yl}-4-[5-(trifluoromethyl)-1H-1,2,3-triazol-4-yl]pyridine] |  |  | 0.1 to 1 µM | 

Now from value to compound:

IC50 (FBXL10; [1]) | IC50 (PHF8) | IC50 (FBXL10; Table 5) | IC50 (Jarid1B) | Structure (SMILES)
0.1 to 1 µM | 1 to 10 µM |  |  | FC(F)(F)Cn1cnc(-c2cc3[nH]nnc3cn2)c1 [Example 43, 4-{1H-[1,2,3]triazolo[4,5-c]pyridin-6-yl}-1-(2,2,2-trifluoroethyl)-1H-imidazole]
 |  |  | 0.1 to 1 µM | Fc1cccc2c1CCCC2Cn1cnc(-c2cc(-c3nn[nH]c3C(F)(F)F)ccn2)c1 (stereo not shown) [Example 99, 2-{1-[(5-fluoro-1,2,3,4-tetrahydronaphthalen-1-yl)methyl]-1H-imidazol-4-yl}-4-[5-(trifluoromethyl)-1H-1,2,3-triazol-4-yl]pyridine]

From patent EP3436445B1, “HISTONE DEMETHYLASE INHIBITORS” (Celgene Quanticel Research, Inc., priority 2016, dated 2017)
